Assay results reported in patent US5998393A, “Methods for assessing 1,25(OH)2 D3 activity in skin and for enhancing the therapeutic use of 1,25(OH)2 D3” (priority 1997, dated 1999).

Assays:
24-hydroxylase mRNA = assay: 24-OHase mRNA induction in human skin in vivo after topical application (Northern blot); details: for 24-OHase mRNA expression, agent alone: human skin in vivo, applied by itself
CRABP-II mRNA = CRABP-II mRNA induction in human skin in vivo (reprobed blots)

With `CC1=C(/C=C/C(C)=C/C=C/C(C)=C/C(=O)O)C(C)(C)CCC1` [t-RA, All-trans-retinoic acid] the “enhancement of 24-OHase mRNA level induced by a low dose of 1,25(OH)2 D3” value (24-hydroxylase mRNA; co-applied with low dose (0.002%) 1,25(OH)2 D3, discussion) was “synergistically enhanced”, the “24-OHase mRNA expression, agent alone” value (24-hydroxylase mRNA; discussion) was “neither 9-c-RA nor t-RA alone induced” and the “CRABP-II mRNA levels” value (CRABP-II mRNA) was “markedly induced”.

`CC1=C(/C=C/C(C)=C\C=C\C(C)=C\C(=O)O)C(C)(C)CCC1` [9-c-RA, 9-cis retinoic acid] was tested, and the “increase in 24-OHase transcription level compared to 1,25(OH)2 D3 treatment alone” value (24-hydroxylase mRNA; RA isomer (0.1%) added to 0.002% 1,25(OH)2D3) was 76%, the “24-OHase mRNA expression, agent alone” value (24-hydroxylase mRNA; discussion) was “neither 9-c-RA nor t-RA alone induced” and the “CRABP-II mRNA levels” value (CRABP-II mRNA) was “markedly induced”.
